Experimental data taken from ChEMBL document CHEMBL5154942, “Discovery of Clinical Candidate NTQ1062 as a Potent and Bioavailable Akt Inhibitor for the Treatment of Human Tumors” (J Med Chem, 2022).

Sequences of proteins named here, by UniProt entry; tags and fusion partners are left off. A change or cut given only in a name is not applied to a line headed by its entry.
UniProt P31749: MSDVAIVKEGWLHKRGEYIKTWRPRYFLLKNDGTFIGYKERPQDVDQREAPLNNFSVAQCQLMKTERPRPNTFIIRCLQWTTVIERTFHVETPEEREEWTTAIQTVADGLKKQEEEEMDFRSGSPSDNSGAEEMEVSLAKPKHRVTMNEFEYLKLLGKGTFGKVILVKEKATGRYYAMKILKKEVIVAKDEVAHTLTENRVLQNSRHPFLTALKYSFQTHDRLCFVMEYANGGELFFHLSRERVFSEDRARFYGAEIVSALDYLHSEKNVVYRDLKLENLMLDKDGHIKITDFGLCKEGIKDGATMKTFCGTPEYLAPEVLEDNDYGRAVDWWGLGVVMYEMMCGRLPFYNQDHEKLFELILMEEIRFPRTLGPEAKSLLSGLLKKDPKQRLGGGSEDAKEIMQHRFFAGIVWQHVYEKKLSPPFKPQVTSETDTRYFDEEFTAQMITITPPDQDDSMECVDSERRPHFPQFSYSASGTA

Target: RAC-alpha serine/threonine-protein kinase (Homo sapiens, UniProt P31749)
Experiment: Inhibition of recombinant AKT1 (104 to 480 end residues) (unknown origin) catalytic domain expressed in Sf21 cells using peptide substrate incubated for 1 hr in presence of ATP by caliper off-chip mobility shift assay

IC50: 0.7 nM
Compound: C[C@@H]1CC(=O)Nc2ncnc(N3CCN(C(=O)[C@H](CNC4CC4)c4ccc(Cl)cc4)[C@@H]4C[C@@H]43)c21
